Experimental data published in article PMC10531824.

Assays:
Test in all cases: Ellman assay, probit analysis
Conditions in all cases: read-out: I50; covalent; crude homogenate; 30 min preincubation at 25 °C; acetylthiocholine substrate, pH 7.4
Cotesia plutellae AChE = tested on: Cotesia plutellae AChE
[1] = tested on: Phyllotreta striolata AChE
Plutella xylostella AChE = tested on: Plutella xylostella AChE
Prodenia litura AChE = tested on: Prodenia litura AChE
Propylea japonica AChE = tested on: Propylea japonica AChE
Pteromalus puparum AChE = tested on: Pteromalus puparum AChE

## CCOC(=O)CC(SP(=O)(OC)OC)C(=O)OCC (stereo not drawn)
Cotesia plutellae AChE
  IC50: 521 nM
[1]
  IC50: 1730 nM
Plutella xylostella AChE
  IC50: 10.6 µM
Prodenia litura AChE
  IC50: 1400 nM
Propylea japonica AChE
  IC50: 942 nM
Pteromalus puparum AChE
  IC50: 388 nM

## CCOP(=O)(OCC)Oc1ccc([N+](=O)[O-])cc1
Cotesia plutellae AChE
  IC50: 72.1 nM
[1]
  IC50: 327 nM
Plutella xylostella AChE
  IC50: 5.88 µM
Prodenia litura AChE
  IC50: 446 nM
Propylea japonica AChE
  IC50: 98.5 nM
Pteromalus puparum AChE
  IC50: 77.7 nM
